ChEMBL document CHEMBL2401681 (Bioorg Med Chem Lett, 2013)

Sequences of proteins named here, by UniProt entry; tags and fusion partners are left off.
UniProt Q92731, whole entry: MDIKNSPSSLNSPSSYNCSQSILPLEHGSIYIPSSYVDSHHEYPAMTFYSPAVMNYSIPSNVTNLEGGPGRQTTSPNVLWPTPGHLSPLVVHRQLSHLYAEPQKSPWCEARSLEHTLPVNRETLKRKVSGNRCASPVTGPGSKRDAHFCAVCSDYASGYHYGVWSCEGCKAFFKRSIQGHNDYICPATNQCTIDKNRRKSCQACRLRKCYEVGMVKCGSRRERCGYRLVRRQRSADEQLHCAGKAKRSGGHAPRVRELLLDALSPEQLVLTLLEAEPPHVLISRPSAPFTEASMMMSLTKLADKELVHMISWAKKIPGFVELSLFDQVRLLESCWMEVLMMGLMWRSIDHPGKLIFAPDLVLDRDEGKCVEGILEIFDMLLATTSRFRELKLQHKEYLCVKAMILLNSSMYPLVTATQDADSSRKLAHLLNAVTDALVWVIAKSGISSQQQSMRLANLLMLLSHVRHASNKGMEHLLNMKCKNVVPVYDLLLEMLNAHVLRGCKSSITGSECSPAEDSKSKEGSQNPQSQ
UniProt P03372, whole entry: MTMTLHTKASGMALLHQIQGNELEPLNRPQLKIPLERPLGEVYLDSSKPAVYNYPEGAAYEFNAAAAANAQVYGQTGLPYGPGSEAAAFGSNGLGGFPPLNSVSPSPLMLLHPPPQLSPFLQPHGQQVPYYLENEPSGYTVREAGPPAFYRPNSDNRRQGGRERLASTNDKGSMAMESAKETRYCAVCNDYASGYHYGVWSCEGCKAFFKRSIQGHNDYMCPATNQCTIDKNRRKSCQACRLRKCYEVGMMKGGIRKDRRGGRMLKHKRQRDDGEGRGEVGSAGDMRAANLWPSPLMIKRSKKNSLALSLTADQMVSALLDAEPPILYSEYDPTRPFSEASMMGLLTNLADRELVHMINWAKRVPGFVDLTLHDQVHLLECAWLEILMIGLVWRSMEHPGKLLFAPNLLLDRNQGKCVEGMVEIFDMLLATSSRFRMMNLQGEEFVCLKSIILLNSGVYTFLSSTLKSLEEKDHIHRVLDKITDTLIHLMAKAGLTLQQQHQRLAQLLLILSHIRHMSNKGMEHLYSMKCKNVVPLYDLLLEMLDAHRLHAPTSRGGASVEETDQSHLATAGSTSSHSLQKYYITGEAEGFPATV

Key:
Estrogen receptor beta = Estrogen receptor beta (Homo sapiens, UniProt Q92731); conditions: at 3 µM
Estrogen receptor = Estrogen receptor (Homo sapiens, UniProt P03372); conditions: at 3 µM

SMILES: CCCCC(CCCC)(c1ccc(O)c(CCC)c1)c1ccc(O)c(CCC)c1
- inhibition (Estrogen receptor beta): 14%
- inhibition (Estrogen receptor): 15%

SMILES: CCCC[Si](CCCC)(c1ccc(O)c(C)c1)c1ccc(O)c(C)c1
- inhibition (Estrogen receptor): 30%

SMILES: CCCc1cc(C(CCC)(CCC)c2ccc(O)c(CCC)c2)ccc1O
- inhibition (Estrogen receptor beta): 23%
- inhibition (Estrogen receptor): 38%

SMILES: CCCc1cc(C(CC)(CC)c2ccc(O)c(CCC)c2)ccc1O
- inhibition (Estrogen receptor beta): 35%
- inhibition (Estrogen receptor): 17%
